# Assay results taken from patent EP0635577B1, “Screen for inhibitors of melanin biosynthesis” (BASF AKTIENGESELLSCHAFT, priority 1993, dated 1995).
# Test system: Cladosporium cucumerinum
# Test: melanin biosynthesis inhibition screen, disk diffusion assay on solidified culture
# Assay type: cell-based
# Details: C. cucumerinum Antibiotic Panel; effect on growth and pigmentation in words; screen of Example 1
# Procedure: Potato dextrose medium (PDM) for the screening test is prepared by melting
# The mixture is autoclaved as 150 ml aliquots at 121°C for 25 minutes.
# A chloramphenicol stock solution is prepared to contain 15 mg chloramphenicol per mL absolute ethanol and is stored at -20°C.
# Conidia from Cladosporium cucumerinum, 10^7/mL in 0.03% Tween 20™, retain their viability for at least 12 weeks of storage in 1.8 ml cryovials at -85°C. Inoculum for running the screen are raised once every three months and stored without a cryoprotectant at the working concentration of 10^7 conidia/mL.
# Fresh inoculum suspensions are prepared from conidial suspensions stored at -85°C. A cryovial is thawed by hand-heat, and 200 uL spread on the surface of PDA in 9 cm Petri dishes. Plates are placed in a resin box (to prevent fungal escape) and incubated at room temperature, 40 cm below laboratory fluorescent lights. Seven days later conidia are collected. Five mL of 0.03% Tween 20™ is added to each plate, and the conidia are released by rubbing the mycelium with a glass rod. The suspension is passed through a layer of sterile Miracloth™ and the concentration adjusted to 10^7 conidia/mL in 0.03% Tween 20™ using a haemocytometer. […]
# Test compounds are applied to 0.63 cm (¼ inch) filter disks. […] The plate is read 40 hours later. […]
compound,measurement,value
CC[C@H]1OC(=O)[C@H](C)C(=O)[C@H](C)[C@@H](O[C@@H]2O[C@H](C)C[C@H](N(C)C)[C@H]2O)[C@@H](C)C[C@@H](C)C(=O)/C=C/[C@]1(C)O [Picromycin],Observation,no effect on growth or pigmentation
